The source of these data is article PMC3646547 (Nature communications, 2012).

Holding throughout (test): crystal structure
Assay [1] has as its target T1, MHF1^1-107 (truncated MHF1 with the C-terminal 31 residues deleted) (human, UniProt Q8N2Z9 1-107).
T1 sequence (looked up): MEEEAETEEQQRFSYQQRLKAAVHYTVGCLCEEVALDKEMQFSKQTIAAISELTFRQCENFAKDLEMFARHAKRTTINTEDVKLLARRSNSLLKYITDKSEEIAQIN

Assay [2] has as its target T2, MHF1^1-114 (SeMet derivative) (human, UniProt Q8N2Z9 1-114, selenomethionine (SeMet-derivative protein)).
T2 sequence (looked up): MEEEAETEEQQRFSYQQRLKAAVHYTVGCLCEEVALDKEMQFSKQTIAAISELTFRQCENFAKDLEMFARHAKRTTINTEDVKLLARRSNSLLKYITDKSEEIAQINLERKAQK

The target of a further assay is T3, FANCM^661-800 (human, UniProt Q8IYD8 661-800).
T3 sequence (looked up): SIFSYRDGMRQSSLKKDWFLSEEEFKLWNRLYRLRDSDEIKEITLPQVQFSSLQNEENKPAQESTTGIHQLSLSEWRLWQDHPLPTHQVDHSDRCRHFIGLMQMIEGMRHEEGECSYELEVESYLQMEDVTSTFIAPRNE

B1: MHF2 (natural protein, human)
chain: MEGAGAGSGFRKELVSRLLHLHFKDDKTKVSGDALQLMVELLKVFVVEAAVRGVRQAQAEDALRVDVDQLEKVLPQLLLDF
On to B1, for which, in assay [1], the binding result is “binds”.

B2: MHF2 (SeMet derivative) (natural protein, human)
chain: MEGAGAGSGFRKELVSRLLHLHFKDDKTKVSGDALQLMVELLKVFVVEAAVRGVRQAQAEDALRVDVDQLEKVLPQLLLDF
modifications: selenomethionine (SeMet-derivative protein)
Consider B2, for which the binding result (in assay [2]; with FANCM^661-800) was “binds” throughout.
